Experimental data: ChEMBL document CHEMBL1926667, “The synthesis of 2-nitroaryl-1,2,3,4-tetrahydroisoquinolines, nitro-substituted 5,6-dihydrobenzimidazo[2,1-a]isoquinoline N-oxides and related heterocycles as potential bioreducible substrates for the enzymes NAD(P)H: quinone oxidoreductase 1 and E. coli nitroreductase” (Bioorg Med Chem Lett, 2011)

Sequences of proteins named here, by UniProt entry; tags and fusion partners are left off.
UniProt P15559, whole entry, looked up: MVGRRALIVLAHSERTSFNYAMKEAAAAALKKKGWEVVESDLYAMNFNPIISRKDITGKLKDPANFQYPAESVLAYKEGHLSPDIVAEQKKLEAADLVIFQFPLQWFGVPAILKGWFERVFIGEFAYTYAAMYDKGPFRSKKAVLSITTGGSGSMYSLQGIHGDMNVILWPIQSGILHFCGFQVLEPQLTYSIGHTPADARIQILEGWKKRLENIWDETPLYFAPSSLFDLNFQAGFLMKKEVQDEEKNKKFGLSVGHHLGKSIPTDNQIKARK

Assays:
[1] = target: NAD(P)H dehydrogenase [quinone] 1 (Homo sapiens) (UniProt P15559); test: Activation of human NQO1 assessed as decrease in substrate concentration at 100 uM by HPLC analysis relative to CB-1954
Summary of the method: (§1)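 Reduction by human NQO1 or E. coli NR followed by the disappearance of substrate over time; specific activity is the rate of substrate reduction at 37 °C. Relative activity is the specific activity compared with CB-1954.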

[2] = target: NAD(P)H dehydrogenase [quinone] 1 (Homo sapiens) (UniProt P15559); test: Activation of human NQO1 assessed as specific activity per mg of protein at 100 uM by measuring decrease in substrate concentration by HPLC analysis; summary of the method: as §1
[3] = target: NAD(P)H dehydrogenase [quinone] 1 (Homo sapiens) (UniProt P15559); test: Activation of human NQO1 assessed as decrease in NADH concentration at 100 uM relative to CB-1954
[4] = target: NAD(P)H dehydrogenase [quinone] 1 (Homo sapiens) (UniProt P15559); test: Activation of human NQO1 assessed as specific activity per mg of protein at 100 uM by measuring decrease in NADH concentration

NC(=O)c1cc(N2CCc3c(cccc3[N+](=O)[O-])C2)c([N+](=O)[O-])cc1[N+](=O)[O-]
fold change (FC) [1]: 0.23 | Activity [2]: 0.0014 µmol/min

NC(=O)c1cc(N2CCc3ccc([N+](=O)[O-])cc3C2)c([N+](=O)[O-])cc1[N+](=O)[O-]
fold change (FC) [1]: < 0.16 | Activity [2]: < 0.001 µmol/min

O=C(O)c1cc([N+](=O)[O-])cc([N+](=O)[O-])c1N1CCc2ccc([N+](=O)[O-])cc2C1
fold change (FC) [3]: 3.2 | Activity [4]: 0.02 µmol/min

O=C(O)c1cc([N+](=O)[O-])cc([N+](=O)[O-])c1N1CCc2c(cccc2[N+](=O)[O-])C1
fold change (FC) [3]: 6.1 | Activity [4]: 0.038 µmol/min

O=[N+]([O-])c1ccc(N2CCc3c(cccc3[N+](=O)[O-])C2)c([N+](=O)[O-])c1
fold change (FC) [1]: < 0.16 | Activity [2]: < 0.001 µmol/min
